1 compound from patent US11730819B2, “Peptide derivatives having novel linkage structures” (priority 2016, dated 2023) can be followed below.

What is called Ki is a measure of affinity in units of concentration, obtained from inhibition or displacement.

One assay deals with rat/mouse MT1-MMP (Mus musculus, UniProt P53690). The assay is described as follows: Binding affinity to rat/mouse MT1-MMP, measured as previously described. As to conditions: Binding Affinity (Ki in nM) rat/mouse ki, bicycle peptide-drug conjugates, two values given. The procedure: Binding affinity was measured using competition assays using Fluorescence Polarisation (anisotropy).
Due to their high affinities to the MT1-MMP Hemopexin domain (PEX), the fluoresceinated derivatives herein can be used for competition experiments (using FP for detection). Here, a pre-formed complex of PEX with the fluorescent PEX-binding tracer is titrated with free, non-fluoresceinated bicyclic peptide. Since all 17-69-based peptides are expected to bind at the same site, the titrant will displace the fluorescent tracer from PEX. Dissociation of the complex can be measured quantitatively, and the Kd of the competitor (titrant) to the target protein determined. The advantage of the competition method is that the affinities of non-fluoresceinated bicyclic peptides can be determined accurately and rapidly. […]
The raw data is fit to the analytical solution of the cubic equation that describes the equilibria between fluorescent tracer, titrant, and binding protein. The fit requires the value of the affinity of fluorescent tracer to the target protein, which can be determined separately by direct binding FP experiments (see previous section). […]
The in vitro binding affinities of the bicycle peptide-drug conjugates prepared above were measured for MT1-MMP as previously described herein.

The target of a further assay is T1, MT1-MMP hemopexin domain (Homo sapiens, UniProt P50281).
T1 construct: residues Cys319-Gly511 from the human gene; His6 (N); made in house; host or cells: HEK293 cells (transient, pEXPR-IBA42 vector)
The assay is described as follows: Fluorescence polarisation competition binding assay. As to conditions: Binding Affinity (Ki in nM) Human ki, bicycle peptide-drug conjugates, two values given. The source says:
The MT1-MMP hemopexin-like repeats (also known as the MT1-MMP hemopexin domain), residues Cys319-Gly511 from the human gene, were transiently expressed in HEK293 cells as secreted N-terminally His6-tagged soluble protein, using the pEXPR-IBA42 (IBA) expression vector. Following expression, the protein was purified by Nickel-NTA affinity chromatography followed by gel filtration, and purity was checked by SDS-PAGE. Batch to batch variability was also monitored by fluorescence thermal shift experiments in the presence/absence of a hemopexin domain binding bicycle.
Binding affinity was measured using competition assays using Fluorescence Polarisation (anisotropy). […]
Here, a pre-formed complex of PEX with the fluorescent PEX-binding tracer is titrated with free, non-fluoresceinated bicyclic peptide. […] Dissociation of the complex can be measured quantitatively, and the Kd of the competitor (titrant) to the target protein determined. The advantage of the competition method is that the affinities of non-fluoresceinated bicyclic peptides can be determined accurately and rapidly.
Subsequently, the non-fluorescent competitor bicyclic peptide (usually just the bicycle core sequence) is titrated, such that it displaces the fluorescent tracer from the target protein. The displacement of the tracer is measured and associated with a drop in fluorescence polarisation. […]

Values joined by “and” are separate entries in the source; they are usually repeats but may differ in a detail not shown here. Identical values can stand only once.

With `CC[C@H](C)[C@@H]([C@@H](CC(=O)N1CCC[C@H]1[C@H](OC)[C@@H](C)C(=O)N[C@H](C)[C@@H](O)c1ccccc1)OC)N(C)C(=O)[C@@H](NC(=O)[C@H](C(C)C)N(C)C(=O)OCc1ccc(NC(=O)[C@H](CCCNC(N)=O)NC(=O)[C@@H](NC(=O)Cn2cc(CCC(=O)NCCC(=O)N(C)CC(=O)N(C)CC(=O)N(C)CC(=O)N(C)CC(=O)N(C)CC(=O)N(C)CC(=O)N(C)CC(=O)N(C)CC(=O)N(C)CC(=O)N(C)CC(=O)N[C@@H](C)C(=O)N[C@H]3CN(C)Cc4cc5cc(c4)CN(C)C[C@@H](C(N)=O)NC(=O)[C@H](C(C)(C)C)NC(=O)[C@H](CC(=O)O)NC(=O)[C@H](Cc4ccc(O)cc4)NC(=O)[C@H](Cc4ccccc4)NC(=O)[C@H](CC(=O)O)NC(=O)[C@H](CCC(=O)O)NC(=O)[C@H](CSC5)NC(=O)[C@@H](C)NC(=O)[C@H](Cc4cccc5ccccc45)NC(=O)[C@H](CCC(=O)O)NC(=O)[C@H](CC(N)=O)NC(=O)[C@@H](C)NC3=O)nn2)C(C)C)cc1)C(C)C` [BT17BDC-61], the Ki at rat/mouse MT1-MMP is 1.8 nM and 1.6 nM; at MT1-MMP hemopexin domain, 3.2 nM and 2.9 nM.
